This is a selection; strong and weak results do not stand in their true shares.
System: Serine/threonine-protein kinase B-raf (Homo sapiens), P15056 [V600E]
Conditions: at 1 µM
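Note: enzyme inhibition of the BRAF V599E mutant kinase, given as mean percent inhibition, screened within the GSK PKIS kinase inhibitor set.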

The chains behind the UniProt entries cited, without tags or fusion partners.
Serine/threonine-protein kinase B-raf (Homo sapiens), P15056, UniProt P15056, whole entry V600E: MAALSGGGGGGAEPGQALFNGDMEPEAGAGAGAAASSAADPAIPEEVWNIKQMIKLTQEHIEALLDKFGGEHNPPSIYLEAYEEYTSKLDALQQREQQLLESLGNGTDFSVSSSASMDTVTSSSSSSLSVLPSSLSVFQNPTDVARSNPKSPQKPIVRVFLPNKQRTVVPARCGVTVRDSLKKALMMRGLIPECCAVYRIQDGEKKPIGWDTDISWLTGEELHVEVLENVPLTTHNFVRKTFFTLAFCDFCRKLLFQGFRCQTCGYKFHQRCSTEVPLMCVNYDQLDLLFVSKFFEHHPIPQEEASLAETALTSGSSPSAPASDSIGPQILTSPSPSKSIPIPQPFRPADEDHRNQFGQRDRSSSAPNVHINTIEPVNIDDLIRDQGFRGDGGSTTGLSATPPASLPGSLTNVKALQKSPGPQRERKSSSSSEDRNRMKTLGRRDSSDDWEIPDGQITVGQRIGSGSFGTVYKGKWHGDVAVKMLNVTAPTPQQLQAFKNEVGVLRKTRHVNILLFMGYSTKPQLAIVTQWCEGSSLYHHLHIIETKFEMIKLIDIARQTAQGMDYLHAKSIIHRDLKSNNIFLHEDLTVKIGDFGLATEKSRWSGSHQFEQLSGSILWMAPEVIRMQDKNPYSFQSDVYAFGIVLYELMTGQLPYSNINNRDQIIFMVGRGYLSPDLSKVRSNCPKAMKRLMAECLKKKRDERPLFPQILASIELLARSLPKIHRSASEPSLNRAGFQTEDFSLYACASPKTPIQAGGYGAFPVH

## O=C1Nc2ccc(I)cc2C1=Cc1cc(Br)c(O)c(Br)c1
  inhibition: 13.7%

— ChEMBL document CHEMBL1961873, “Compounds: GSK PKIS; Assays: Nanosyn kinase panel” (2012)
